Source: US9353093B2, “Indole-1-carboxamides as kinase inhibitors” (Allergan, Inc., priority 2014, dated 2016)

Chains of the proteins cited; added tags and fusions are not shown. Residues count along the entry.
UniProt P35968, 786-1356: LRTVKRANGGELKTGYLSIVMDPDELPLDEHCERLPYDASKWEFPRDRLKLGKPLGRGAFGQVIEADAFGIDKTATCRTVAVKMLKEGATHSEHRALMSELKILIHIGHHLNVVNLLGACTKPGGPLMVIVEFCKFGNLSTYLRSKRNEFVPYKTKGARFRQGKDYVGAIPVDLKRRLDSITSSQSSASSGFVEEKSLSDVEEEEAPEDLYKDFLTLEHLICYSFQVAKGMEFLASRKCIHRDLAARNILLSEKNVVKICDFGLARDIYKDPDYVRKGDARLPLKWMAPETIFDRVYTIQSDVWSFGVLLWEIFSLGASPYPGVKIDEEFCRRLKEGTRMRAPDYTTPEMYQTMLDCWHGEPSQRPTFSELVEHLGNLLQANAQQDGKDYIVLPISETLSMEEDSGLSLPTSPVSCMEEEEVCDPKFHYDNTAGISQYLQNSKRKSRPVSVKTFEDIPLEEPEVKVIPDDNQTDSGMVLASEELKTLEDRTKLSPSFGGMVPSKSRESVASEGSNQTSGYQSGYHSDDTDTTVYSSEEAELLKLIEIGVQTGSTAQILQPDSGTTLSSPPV
UniProt P09619, 554-1106: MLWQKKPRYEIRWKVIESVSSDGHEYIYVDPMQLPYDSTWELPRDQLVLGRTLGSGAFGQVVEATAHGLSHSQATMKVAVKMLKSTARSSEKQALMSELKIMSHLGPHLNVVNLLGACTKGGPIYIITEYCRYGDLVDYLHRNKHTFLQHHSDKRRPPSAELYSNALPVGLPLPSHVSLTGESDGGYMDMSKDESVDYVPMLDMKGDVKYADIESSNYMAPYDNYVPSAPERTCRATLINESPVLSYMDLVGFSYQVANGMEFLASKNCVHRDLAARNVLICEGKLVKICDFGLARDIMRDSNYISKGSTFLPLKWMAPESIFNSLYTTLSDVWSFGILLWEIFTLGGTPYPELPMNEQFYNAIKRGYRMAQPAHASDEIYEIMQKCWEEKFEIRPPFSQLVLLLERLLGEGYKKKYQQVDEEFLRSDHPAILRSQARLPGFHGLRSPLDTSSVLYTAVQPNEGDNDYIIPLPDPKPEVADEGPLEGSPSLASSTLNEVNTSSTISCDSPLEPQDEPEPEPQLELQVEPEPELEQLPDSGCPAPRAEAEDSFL

What was measured:
[1] = test system: VEGFR2 in HUVEC (human umbilical vein endothelial cells); test: VEGFR2 Cellular Assay (FLIPR, VEGF induced increases in intracellular calcium); format: cell-based; settings: VEGF165 stimulation (10 ng/mL), 30 minutes pre-incubation, Fluo-4 calcium, read-out: Receptor VEGFR2 IC50
Procedure: VEGFR2 Cellular Assay Automated FLIPR (Fluorometric Imaging Plate Reader) technology was used to screen for inhibitors of VEGF induced increases in intracellular calcium levels in fluorescent dye loaded endothelial cells. HUVEC (human umbilical vein endothelial cells) (Clonetics) were seeded in 384-well fibronectin coated black-walled plates overnight @37° C./5% CO2. Cells were loaded with calcium indicator Fluo-4 for 45 minutes at 37° C. Cells were washed 2 times (EIx405, Biotek Instruments) to remove extracellular dye. For screening, cells were pre-incubated with test agents for 30 minutes, at a single concentration (10 uM) or at concentrations ranging from 0.0001 to 10.0 uM followed by VEGF165 stimulation (10 ng/mL). Changes in fluorescence at 516 nm were measured simultaneously in all 384 wells using a cooled CCD camera. Data were generated by determining max-min fluorescence levels for unstimulated, stimulated, and drug treated samples. IC50 values for test compounds were calculated from % inhibition of VEGF stimulated responses in the absence of inhibitor.

[2] = target: purified cytoplasmic domain KDR protein (VEGFR2) (Homo sapiens (Human), UniProt P35968); test: VEGFR2 Kinase Assay; format: biochemical; settings: 2.7 μM ATP, poly-Glu-Tyr (4:1) substrate, 15 minute incubation at 30° C.; read-out: Enzyme VEGFR2 IC50
Procedure: VEGFR2 Kinase Assay Biochemical KDR kinase assays were performed in 96 well microtiter plates that were coated overnight with 75 μg/well of poly-Glu-[…]:1) in 10 mM Phosphate Buffered Saline (PBS), pH 7.4. The coated plates were washed with 2 mls per well PBS+0.05% Tween-20 (PBS-T), blocked by incubation with PBS containing 1% BSA, then washed with 2 mls per well PBS-T prior to starting the reaction. Reactions were carried out in 100 μL reaction volumes containing 2.7 μM ATP in kinase buffer (50 mM Hepes buffer pH 7.4, 20 mM MgCl2, 0.1 mM MnCl2 and 0.2 mM Na3VO4). […] Reactions were initiated by the addition 20 ul per well of kinase buffer containing 200-300 ng purified cytoplasmic domain KDR protein (BPS Bioscience, San Diego, Calif.). Following a 15 minute incubation at 30° C., the reactions were washed 2 mls per well PBS-T. 100 μl of a monoclonal anti-phosphotyrosine antibody-peroxidase conjugate diluted 1:10,000 in PBS-T was added to the wells for 30 minutes. Following a 2 mls per well wash with PBS-Tween-20, 100 μl of O-Phenylenediamine Dihydrochloride in phosphate-citrate buffer, containing urea hydrogen peroxide, was added to the wells for 7-10 minutes as a colorimetric substrate for the peroxidase. The reaction was terminated by the addition of 100 μl of 2.5N H2SO4 to each well and read using a microplate ELISA reader set at 492 nm. IC50 values for compound inhibition were calculated directly from graphs of optical density (arbitrary units) versus compound concentration following subtraction of blank values.

[3] = target: purified cytoplasmic domain PDGFR-b protein (PDGFRβ) (Homo sapiens (Human), UniProt P09619); test: PDGFRβ Kinase Assay; format: biochemical; settings: 36 μM ATP, poly-Glu-Tyr (4:1) substrate, 60 minute incubation at 30° C.; read-out: Enzyme PDGFβ IC50
Procedure: Biochemical PDGFRβ kinase assays were performed in 96 well microtiter plates that were coated overnight with 75 μg of poly-Glu-Tyr (4:1) in 10 mM Phosphate Buffered Saline (PBS), pH 7.4. The coated plates were washed with 2 mls per well PBS+0.05% Tween-20 (PBS-T), blocked by incubation with PBS containing 1% BSA, then washed with 2 mls per well PBS-T prior to starting the reaction. Reactions were carried out in 100 μL reaction volumes containing 36 μM ATP in kinase buffer (50 mM Hepes buffer pH 7.4, 20 mM MgCl2, 0.1 mM MnCl2 and 0.2 mM Na3VO4). Test compounds were reconstituted in 100% DMSO and added to the reaction to give a final DMSO concentration of 5%. Reactions were initiated by the addition 20 ul per well of kinase buffer containing 200-300 ng purified cytoplasmic domain PDGFR-b protein (Millipore). Following a 60 minute incubation at 30° C., the reactions were washed 2 mls per well PBS-T. 100 μl of a monoclonal anti-phosphotyrosine antibody-peroxidase conjugate diluted 1:10,000 in PBS-T was added to the wells for 30 minutes. […] The reaction was terminated by the addition of 100 μl of 2.5N H2SO4 to each well and read using a microplate ELISA reader set at 492 nm. IC50 values for compound inhibition were calculated directly from graphs of optical density (arbitrary units) versus compound concentration following subtraction of blank values.

SMILES	IC50 [1]	IC50 [2]	IC50 [3]
NC(=O)n1c(-c2ccc(NC(=O)Nc3cc(C(F)(F)F)ccc3F)cc2)cc2ccccc21 [Example 9, 2-{4-[({[2-fluoro-5-(trifluoromethyl)phenyl]amino}carbonyl)amino]phenyl}-1H-indole-1-carboxamide]	0.139 µM	0.011 µM	–
Cc1cccc(NC(=O)Nc2csc(-c3cc4ccccc4n3C(N)=O)c2)c1 [Example 26, 2-[4-({[(3-methylphenyl)amino]carbonyl}amino)-2-thienyl]-1H-indole-1-carboxamide]	0.508 µM	0.067 µM	–
NC(=O)n1c(-c2cc(NC(=O)Nc3ccc(Cl)c(C(F)(F)F)c3)cs2)cc2ccccc21 [Example 31, 2-{4-[({[4-chloro-3-(trifluoromethyl)phenyl]amino}carbonyl)amino]-2-thienyl}-1H-indole-1-carboxamide]	7.35 µM	0.131 µM	–
NC(=O)n1c(-c2cc(NC(=O)Nc3cccc(C(F)(F)F)c3)cs2)cc2ccccc21 [Example 27, 2-{4-[({[3-(trifluoromethyl)phenyl]amino}carbonyl)amino]-2-thienyl}-1H-indole-1-carboxamide]	1.21 µM	0.093 µM	–
NC(=O)n1c(-c2ccc(NC(=O)Nc3ccc(F)c(Cl)c3)cc2)cc2ccccc21 [Example 5, 2-[4-({[(3-chloro-4-fluorophenyl)amino]carbonyl}amino)phenyl]-1H-indole-1-carboxamide]	0.097 µM	0.008 µM	–
CC(C)c1cccc(NC(=O)Nc2ccc(-c3cc4ccccc4n3C(N)=O)cc2)c1 [Example 4, 2-[4-({[(3-isopropylphenyl)amino]carbonyl}amino)phenyl]-1H-indole-1-carboxamide]	0.015 µM	0.006 µM	0.016 µM
